In ChEMBL document CHEMBL1124775 (J Med Chem, 1990):

Assay: Binding affinity (Ki) was determined towards Opioid receptors by competition with [3H]diprenorphine in rat whole brain membrane preparation

CO[C@]12CC[C@@]3(C[C@@H]1C(C)(C)O)[C@H]1Cc4ccc(O)c5c4[C@@]3(CCN1CC1CC1)[C@H]2O5
Ki: 0.22 nM
